# Measured affinities in a library of Ab-14 light chain variants

Target peptide (SARS-CoV-2 spike, HR2 region): PDVDLGDISGINAS

Parent: Ab-14, a human scFv built as VH, a 15-residue (Gly4Ser)3 linker, VL. Only the CDRs of the light chain vary.
VH: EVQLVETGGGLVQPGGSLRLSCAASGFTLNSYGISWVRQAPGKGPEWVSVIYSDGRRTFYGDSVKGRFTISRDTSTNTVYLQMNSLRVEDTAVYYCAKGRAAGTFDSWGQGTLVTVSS
VL: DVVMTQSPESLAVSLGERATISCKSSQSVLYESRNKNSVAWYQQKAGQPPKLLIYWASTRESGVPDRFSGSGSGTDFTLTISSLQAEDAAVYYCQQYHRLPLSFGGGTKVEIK

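The starting antibody came from a phage panning campaign against this peptide. This is the validation round: designs drawn from the data on random variants, tested in the same kind of assay. Their group label is 14L_GP_Gibbs (GP: Gaussian process model; Gibbs: Gibbs sampling; a sequence that several methods proposed may carry one label only). AlphaSeq pools MATa yeast showing the antibodies with MATalpha yeast showing the peptide. Mating (16 h, 30 °C) was followed by selection of diploids and sequencing of their barcodes. A regression on co-assayed BCL2-family reference pairs converts the normalised counts of each replicate to an apparent Kd. There are six technical replicates.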

Substitutions are numbered in sequence along the VL above, starting at 1 (not Kabat). Numbers give log10(Kd / nM), so 0 is 1 nM and 3 is 1 µM. Smaller is tighter. Replicates are averaged; those with no signal do not enter the mean. An entry "nd" has no value in the source: the pair was not observed among the diploids in that replicate. This suggests poor binding but is not conclusive. Of ten entries with the parent sequence, four were seen in most replicates (averages 0.34 to 2.37), three in one and three in none, so single entries are noisy.

| changes | log10 Kd (nM) by replicate | mean log10 Kd (nM) | empty controls |
|---|---|---|---|
| Q27P/V29Q/S33D/N35M/K36D/W56N/T59Q | 0.33 / 0.26 / 0.21 / -0.04 / 0.24 / 0.48 | 0.25 | 0 of 18 |
| S25V/S26E/V29N/L30D/N37Q/W56N/T59Q/E61L | 0.03 / -0.26 / -0.20 / -0.23 / -0.12 / -0.08 | -0.14 | 0 of 18 |
| S25I/V29G/L30P/S33D/K36F/W56H/T59Y/E61I | 1.08 / 0.81 / 0.85 / 0.71 / 0.86 / 0.93 | 0.87 | 0 of 18 |
| S25V/Q27I/V29E/L30P/S33E/S38N/W56N/E61M | 0.03 / -0.25 / -0.36 / -0.23 / -0.23 / -0.07 | -0.18 | 0 of 18 |
| S25L/S26D/S28M/L30V/W56N | -0.22 / -0.13 / -0.50 / -0.33 / -0.44 / -0.11 | -0.29 | 1 of 18 (2.61) |
| Q27P/V29Q/L30Y/S33D/N35E/K36F/W56N/T59Q | 0.61 / 0.53 / 0.49 / 0.53 / 0.68 / 0.50 | 0.55 | 1 of 18 (3.50) |
| S25F/S26D/V29Q/L30D/W56Q/T59Q/S62Q/S103Y | 0.50 / 0.14 / 0.02 / 0.27 / 0.11 / 0.44 | 0.25 | 1 of 18 (3.55) |
| S25L/V29Q/S33W/K36M/W56N/S62M/S103I | 0.69 / 0.63 / 0.28 / 0.56 / 0.48 / 0.52 | 0.53 | 1 of 18 (2.01) |
| S25L/S26V/Q27G/V29W/L30Q/W56H/T59Q/E61C | 1.09 / 1.51 / 1.58 / 1.49 / 1.23 / 2.01 | 1.48 | 1 of 18 (2.63) |
| S25L/Q27F/V29N/S33D/W56Q/E61L/S62M | -0.07 / -0.24 / 0.04 / -0.07 / -0.08 / 0.15 | -0.05 | 0 of 18 |
| S25L/S26E/Q27M/L30Q/Y31M/W56N | 0.09 / -0.12 / -0.17 / -0.08 / 0.03 / -0.05 | -0.05 | 1 of 18 (3.09) |
| S25L/S28D/V29Y/L30C/E32G/S33D/W56Q/S62Q | 0.19 / 0.02 / -0.09 / -0.15 / -0.04 / 0.14 | 0.01 | 0 of 18 |
| S25V/E32G/S33D/N37S/W56Q/S62M | 1.53 / 0.58 / 0.97 / 0.42 / 0.61 / 0.63 | 0.79 | 3 of 18 (2.06) |
| S25L/S26M/Q27C/V29M/L30E/W56N/S62M/S103V | 0.04 / -0.02 / 0.15 / 0.00 / -0.02 / 0.99 | 0.19 | 0 of 18 |
| S25F/S26Q/L30M/Y31M/E32G/S33D/W56K/E61L | 1.56 / 1.33 / 0.83 / 0.92 / 1.85 / 2.09 | 1.43 | 1 of 18 (2.45) |
| S25F/S28L/W56N/H98R | 0.14 / -0.05 / 0.30 / 0.14 / -0.17 / 0.15 | 0.09 | 0 of 18 |
| S25V/S26E/S28G/L30D/Y31D/E32L/S33E/K36D | 1.36 / 1.73 / 1.24 / 1.44 / 1.68 / 1.32 | 1.46 | 1 of 18 (2.94) |
| K24A/S25A/S26Q/V29E/S33D/K36Q/W56N/T59Q/E61L | 0.08 / 0.17 / 0.00 / 0.44 / 1.47 / 0.33 | 0.41 | 0 of 18 |
| S25M/S26Q/V29Q/L30P/N35M/K36S/S38A/W56N/T59Y/E61M | 0.47 / 0.55 / 0.36 / 0.37 / 0.41 / 0.64 | 0.47 | 1 of 18 (2.57) |
| S25V/Y31M/R34C/K36V/S38N/W56Y/S62D | 0.95 / 0.84 / 0.83 / 0.67 / 0.94 / 0.83 | 0.84 | 1 of 18 (2.50) |
| S25Q/S26Q/V29G/L30M/Y31M/K36D/W56H/E61L | 0.18 / 0.14 / 0.01 / -0.11 / 0.02 / 0.23 | 0.08 | 0 of 18 |
| S25L/S26E/Q27M/V29M/L30P/W56H/T59V | -0.32 / -0.04 / -0.10 / -0.32 / 0.41 / 0.02 | -0.06 | 0 of 18 |
| S25L/S26M/Q27W/L30M/Y31L/W56Q/E61M/Q96D | 0.38 / 0.45 / 0.61 / 0.36 / 0.34 / 0.72 | 0.48 | 1 of 18 (2.11) |
| S26M/V29M/L30E/W56E/S62L | 0.57 / 0.28 / 0.61 / 0.19 / 0.53 / 0.66 | 0.48 | 3 of 18 (2.87) |
| S25V/Q27M/S28Q/V29Q/E32S/S38Q/W56D | 0.25 / 0.24 / 0.17 / 0.01 / 0.11 / 0.17 | 0.16 | 1 of 18 (2.77) |
| S25F/S28Q/N35V/W56N/T59Q/E61L/S62E | -0.02 / -0.32 / -0.29 / -0.28 / -0.11 / -0.12 | -0.19 | 3 of 18 (2.53) |
| S25V/S26E/L30M/Y31M/E32G/W56N/T59Q/S62Q | -0.01 / -0.08 / -0.06 / -0.18 / -0.02 / 0.09 | -0.04 | 0 of 18 |
| S25L/S26Q/Q27G/L30G/S33E/W56G/T59Q/S62D | 0.19 / 0.06 / -0.10 / -0.09 / -0.25 / 0.28 | 0.01 | 0 of 18 |
| S25L/S26V/Q27Y/V29W/L30Q/W56H/T59Q/E61C | nd / 1.84 / 2.28 / 1.86 / 1.66 / 1.35 | 1.80 | 0 of 18 |
| S25I/V29F/Y31M/R34M/W56E/E61I/S62W | 0.17 / 0.27 / 0.06 / 0.00 / 0.20 / 0.37 | 0.18 | 0 of 18 |
| S25V/S26Q/Q27A/V29Q/E32W/W56N/S62T | -0.40 / -0.37 / -0.55 / -0.68 / -0.51 / -0.31 | -0.47 | 2 of 18 (3.08) |
| S25M/S26Q/V29N/K36C/W56N/E61M/S62W | 1.34 / 0.51 / 1.41 / 1.96 / 1.84 / 1.77 | 1.47 | 0 of 18 |
| Q27F/V29Q/S33N/W56S/T59Q | 0.08 / 0.15 / 0.12 / 0.18 / 0.11 / 0.27 | 0.15 | 0 of 18 |
| S25L/L30E/Y31V/E32L/S33D/W56E/S62M | 0.15 / 0.03 / -0.15 / 0.08 / -0.02 / 0.09 | 0.03 | 1 of 18 (2.24) |
| S25F/S26F/S33Q/K36Q/S38N/W56S/S62N | -0.19 / -0.38 / -0.42 / -0.55 / -0.37 / -0.20 | -0.35 | 0 of 18 |
| S25I/Q27G/V29Y/Y31G/K36W/S38A/W56E/T59Q/S62Q | 0.16 / 0.18 / -0.02 / 0.43 / 0.06 / 0.07 | 0.15 | 0 of 18 |
| S25W/S26Q/V29E/L30E/K36F/W56E/T59C/E61N | 1.02 / 0.74 / 0.44 / 0.45 / 0.51 / 0.46 | 0.60 | 0 of 18 |
| S25L/Q27Y/S28G/V29N/W56N/E61C/S62Q | 0.27 / 0.25 / 0.15 / 0.03 / 0.12 / 0.39 | 0.20 | 1 of 18 (2.50) |
| S25L/S26Q/Q27M/V29H/L30G/E32G/N35M/W56Q/T59Q/S62E | 0.61 / 0.54 / 0.28 / 0.38 / 0.42 / 0.74 | 0.50 | 1 of 18 (1.93) |
| S25C/S26Q/V29Q/L30D/S38A/W56N/T59L/S62D | 0.22 / -0.28 / -0.02 / -0.20 / -0.09 / 0.08 | -0.05 | 2 of 18 (3.74) |
| S25V/Q27L/L30M/Y31L/K36V/S38A/W56E/Q96D | 0.83 / 1.42 / 1.52 / 1.37 / 0.81 / 0.76 | 1.12 | 1 of 18 (3.02) |
| S25L/S33D/N35H/W56G/T59K/E61F | 1.73 / 1.37 / 1.72 / 1.93 / 1.50 / 1.73 | 1.66 | 2 of 18 (2.78) |
| S25M/S28E/V29N/L30P/K36S/W56N/S62M | 0.47 / 0.40 / 0.31 / -0.03 / 0.29 / 0.56 | 0.33 | 1 of 18 (2.09) |
| S25V/S26E/Q27M/S28G/L30D/Y31D/E32L/K36D | 1.87 / 1.23 / 1.09 / 0.36 / 0.90 / 0.95 | 1.07 | 1 of 18 (2.30) |
| Q27I/V29M/S33E/N35M/K36D/W56N/T59Q | 1.87 / 0.82 / 0.87 / 1.11 / 0.93 / 0.62 | 1.04 | 0 of 18 |
| S25Q/V29E/E32G/W56D/T59Q/Q96D | 0.18 / 0.19 / 0.24 / 0.05 / 0.20 / 0.39 | 0.21 | 1 of 18 (2.38) |

For reference, 3 entries of the list once more:

{"changes": "S25F/S26F/S33Q/K36Q/S38N/W56S/S62N", "log10 Kd (nM) by replicate": "-0.19 / -0.38 / -0.42 / -0.55 / -0.37 / -0.20", "mean log10 Kd (nM)": "-0.35", "empty controls": "0 of 18"}
{"changes": "Q27P/V29Q/S33D/N35M/K36D/W56N/T59Q", "log10 Kd (nM) by replicate": "0.33 / 0.26 / 0.21 / -0.04 / 0.24 / 0.48", "mean log10 Kd (nM)": "0.25", "empty controls": "0 of 18"}
{"changes": "S25V/Q27I/V29E/L30P/S33E/S38N/W56N/E61M", "log10 Kd (nM) by replicate": "0.03 / -0.25 / -0.36 / -0.23 / -0.23 / -0.07", "mean log10 Kd (nM)": "-0.18", "empty controls": "0 of 18"}

Values of this round are not directly comparable with the first-round values of the same sequences. The authors averaged sequences with at least three values out of six and counted those with two or fewer as poor binders. Nonspecific signal, from three strains lacking the peptide, appeared in 4% of pairings of all light chain designs, centred on 2.64 (5% of these signals below 1.59); values are not corrected for it. The control count says in how many pairings with the empty strains this scFv gave a signal, with their mean in brackets.

Data: MIT Lincoln Laboratory AlphaSeq set, Li et al. 2023, doi:10.1038/s41467-023-39022-2, as distributed in FLAb.